Reference: publication PMC8666702 (Hypertension (Dallas, Tex. : 1979), 2021)

Legend:
[1] = system: essential hypertensive subjects; assay: Sitting blood pressure and heart rate after SQ MANP; format: in vivo, human
[2] = system: neprilysin (NEP); settings: cited from earlier work
[3] = clinical; settings: human, in vivo, sc
[4] = Pharmacokinetics of plasma MANP
[5] = system: particulate guanylyl cyclase A receptor (GC-A); assay: Plasma cGMP after SQ MANP; format: in vivo; settings: human, 1, 2.5, 5 ug/kg single SQ, all subjects and timepoints
[6] = Plasma aldosterone after SQ MANP; format: in vivo, human; settings: mean (SEM), n=4
[7] = Urinary sodium excretion after SQ MANP; format: in vivo; settings: human, first 4 hours after SQ administration, 1, 2.5, 5 ug/kg
[8] = system: insulin degrading enzyme (IDE); settings: cited from earlier work
[9] = system: essential hypertensive subjects; format: in vivo, human
Procedure, shortened: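 Hypertensive adults had antihypertensives withdrawn for 2 weeks, then received one SQ injection at 1, 2.5 or 5 ug/kg, in cohorts of 4 dosed in ascending order. They stayed at least 24 h as inpatients. Adverse events (coded by MedDRA term), vital signs, clinical labs and ECG were listed per subject and summarised by dose. MTD was defined as SBP fall ≥30 mmHg, and escalation stopped if 2 subjects in a cohort reached it.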

[10] = system: normal canines; settings: IV, cited from earlier work
[11] = system: hypertensive rodents; settings: daily for 7 days by SQ injection; cited from earlier work
[12] = all doses pooled, single SQ, N=12

## CC[C@H](C)[C@@H]1NC(=O)[C@H](CCCNC(=N)N)NC(=O)[C@H](CC(=O)O)NC(=O)[C@H](CCSC)NC(=O)[C@H](CCCNC(=N)N)NC(=O)CNC(=O)CNC(=O)[C@H](Cc2ccccc2)NC(=O)[C@@H](NC(=O)[C@H](CO)NC(=O)[C@H](CO)NC(=O)[C@H](CCCNC(=N)N)NC(=O)[C@H](CCCNC(=N)N)NC(=O)[C@H](CC(C)C)NC(=O)[C@@H](N)CO)CSSC[C@@H](C(=O)N[C@@H](CC(N)=O)C(=O)N[C@@H](CO)C(=O)N[C@@H](Cc2ccccc2)C(=O)N[C@@H](CCCNC(=N)N)C(=O)N[C@@H](Cc2ccc(O)cc2)C(=O)N[C@@H](CCCNC(=N)N)C(=O)N[C@H](C(=O)N[C@H](C(=O)N[C@@H](C)C(=O)N[C@@H](CCCNC(=N)N)C(=O)N[C@@H](CCC(=O)O)C(=O)N[C@@H](CC(=O)O)C(=O)N[C@@H](CCCCN)C(=O)N[C@@H](CCC(N)=O)C(=O)NCC(=O)N[C@@H](Cc2c[nH]c3ccccc23)C(=O)N[C@@H](C)C(=O)O)[C@@H](C)O)[C@@H](C)CC)NC(=O)CNC(=O)[C@H](CC(C)C)NC(=O)CNC(=O)[C@H](CO)NC(=O)[C@H](CCC(N)=O)NC(=O)[C@H](C)NC(=O)CNC1=O [MANP]
[1]; 5 μg/kg cohort
  DBP at 24 hours after dosing: lower
[1]; 2.5 and 5 μg/kg cohorts
  SBP at 24 hours after dosing: remained lower than baseline
[1]; dose dependent, most prominent from 4 to 24 hours post SQ injection in the 5 ug/kg cohort
  Heart rate compared to baseline: trended to increase
[1]; human, all doses (1 to 5 ug/kg single SQ), no clear dose response
  Reduction of SBP: approximately 15 mmHg
[2]
  Enzymatic degradation by NEP: highly resistant to enzymatic degradation
[3]; 1 ug/kg
  half-life: 54 min
[3]; 2.5 ug/kg
  half-life: 75 min
[3]; 5 ug/kg
  half-life: 55 min
[4]; human, 1, 2.5, 5 ug/kg single SQ, AUC from zero to 24 h
  CMax and AUClast of MANP in plasma, dose relation: highest CMax and AUClast occurred with the highest dose of 5 μg/kg
[4]; human, plasma, sc
  Tmax: 30 min
[5]
  Plasma cGMP CMax and AUClast, dose relation: clear dose response with increasing CMax and AUClast
[6]; 1 ug/kg SQ, 1 Hr post dose, predose 7.18 (1.90)
  Plasma aldosterone: 5.80 (0.54) ng/dL
[6]; 1 ug/kg SQ, 3 Hr post dose, predose 7.18 (1.90)
  Plasma aldosterone: 7.98 (1.69) ng/dL
[6]; 1 ug/kg SQ, 12 Hr post dose, predose 7.18 (1.90)
  Plasma aldosterone: 5.55 (1.22) ng/dL
[6]; 1 ug/kg SQ, 24 Hr post dose, predose 7.18 (1.90)
  Plasma aldosterone: 7.40 (1.59) ng/dL
[6]; 1 ug/kg SQ, 15min post dose, predose 7.18 (1.90)
  Plasma aldosterone: 2.19 (0.58) ng/dL
[6]; 1 ug/kg SQ, 30 min post dose, predose 7.18 (1.90)
  Plasma aldosterone: 1.23 (0.46) ng/dL
[6]; 2.5 ug/kg SQ, 1 Hr post dose, predose 8.70 (3.83)
  Plasma aldosterone: 4.85 (0.48) ng/dL
[6]; 2.5 ug/kg SQ, 3 Hr post dose, predose 8.70 (3.83)
  Plasma aldosterone: 4.00 (0.40) ng/dL
[6]; 2.5 ug/kg SQ, 12 Hr post dose, predose 8.70 (3.83)
  Plasma aldosterone: 3.63 (0.39) ng/dL
[6]; 2.5 ug/kg SQ, 24 Hr post dose, predose 8.70 (3.83)
  Plasma aldosterone: 5.48 (0.39) ng/dL
[6]; 2.5 ug/kg SQ, 15min post dose, predose 8.70 (3.83)
  Plasma aldosterone: 2.45 (2.13) ng/dL
[6]; 2.5 ug/kg SQ, 30 min post dose, predose 8.70 (3.83)
  Plasma aldosterone: 3.01 (2.19) ng/dL
[6]; 5 ug/kg SQ, 1 Hr post dose, predose 7.23 (2.74)
  Plasma aldosterone: 4.30 (0.81) ng/dL
[6]; 5 ug/kg SQ, 3 Hr post dose, predose 7.23 (2.74)
  Plasma aldosterone: 8.35 (3.32) ng/dL
[6]; 5 ug/kg SQ, 12 Hr post dose, predose 7.23 (2.74)
  Plasma aldosterone: 4.40 (1.36) ng/dL
[6]; 5 ug/kg SQ, 24 Hr post dose, predose 7.23 (2.74)
  Plasma aldosterone: 6.85 (1.84) ng/dL
[6]; 5 ug/kg SQ, 15min post dose, predose 7.23 (2.74)
  Plasma aldosterone: 1.61 (1.06) ng/dL
[6]; 5 ug/kg SQ, 30 min post dose, predose 7.23 (2.74)
  Plasma aldosterone: 1.98 (1.02) ng/dL
[7]
  Urinary sodium excretion: dose dependent increase
[8]
  Enzymatic degradation by IDE: highly resistant to enzymatic degradation
[9]; 5 μg/kg cohort, n=4, single SQ
  Subjects with SBP reduction ≥30 mmHg: 2 subjects
[9]; 5 μg/kg, data not shown
  Plasma creatinine at 24 hours after dosing compared to pre-dose: trended to be lower
[9]; [12]
  Arrhythmia: 0 (0%) n (%)
  Dyspnea: 0 (0%) n (%)
  Gastrointestinal Symptoms: 0 (0%) n (%)
  Light Headedness: 1 (8%) n (%)
  Orthostatic Vasovagal Syncope: 1 (8%) n (%)
  Paresthesia: 0 (0%) n (%)
  Second- or third-degree AV block: 0 (0%) n (%)
  Tachycardia: 0 (0%) n (%)
  Ventricular fibrillation or asystole: 0 (0%) n (%)
  Ventricular tachycardia > 5 beats: 0 (0%) n (%)
[9]; all doses, N=12
  Serious AEs: no serious AEs
[9]; all subjects, N=12
  Changes in laboratory values or ECG from baseline: No significant changes
  ECG changes during the 24 hours of observation: no ECG changes
[9]; all subjects, N=12, SQ
  Local reactions at the injection sites: no local reactions at the injection sites
[9]; human, single SQ, 2 of four subjects with SBP reduction greater than 30 mmHg
  Maximal tolerated dose (defined as SBP reduction ≥30 mmHg): 5 µg/kg
[10]; markedly greater and more sustained
  Aldosterone suppressing action compared to native ANP: p<0.01 for 150 minutes post infusion
[10]; p<0.001
  Natriuretic action compared to native ANP: greater doubling of natriuresis during infusions
[10]; p<0.05
  Glomerular filtration enhancing action compared to native ANP: more sustained increase in GFR post infusions
[10]; p<0.05 greater reduction sustained over 150 minutes post infusion
  BP lowering compared to native ANP: markedly greater and more sustained BP lowering
[11]
  cGMP and BP effect: cGMP activation and sustained BP lowering
